# Results from PubChem BioAssay AID720711 (National Center for Advancing Translational Sciences (NCATS), 2013).
# Protein sequences, listed by entry. Tags and fused reporters are not part of them.
# UniProt Q8WZA2, whole entry: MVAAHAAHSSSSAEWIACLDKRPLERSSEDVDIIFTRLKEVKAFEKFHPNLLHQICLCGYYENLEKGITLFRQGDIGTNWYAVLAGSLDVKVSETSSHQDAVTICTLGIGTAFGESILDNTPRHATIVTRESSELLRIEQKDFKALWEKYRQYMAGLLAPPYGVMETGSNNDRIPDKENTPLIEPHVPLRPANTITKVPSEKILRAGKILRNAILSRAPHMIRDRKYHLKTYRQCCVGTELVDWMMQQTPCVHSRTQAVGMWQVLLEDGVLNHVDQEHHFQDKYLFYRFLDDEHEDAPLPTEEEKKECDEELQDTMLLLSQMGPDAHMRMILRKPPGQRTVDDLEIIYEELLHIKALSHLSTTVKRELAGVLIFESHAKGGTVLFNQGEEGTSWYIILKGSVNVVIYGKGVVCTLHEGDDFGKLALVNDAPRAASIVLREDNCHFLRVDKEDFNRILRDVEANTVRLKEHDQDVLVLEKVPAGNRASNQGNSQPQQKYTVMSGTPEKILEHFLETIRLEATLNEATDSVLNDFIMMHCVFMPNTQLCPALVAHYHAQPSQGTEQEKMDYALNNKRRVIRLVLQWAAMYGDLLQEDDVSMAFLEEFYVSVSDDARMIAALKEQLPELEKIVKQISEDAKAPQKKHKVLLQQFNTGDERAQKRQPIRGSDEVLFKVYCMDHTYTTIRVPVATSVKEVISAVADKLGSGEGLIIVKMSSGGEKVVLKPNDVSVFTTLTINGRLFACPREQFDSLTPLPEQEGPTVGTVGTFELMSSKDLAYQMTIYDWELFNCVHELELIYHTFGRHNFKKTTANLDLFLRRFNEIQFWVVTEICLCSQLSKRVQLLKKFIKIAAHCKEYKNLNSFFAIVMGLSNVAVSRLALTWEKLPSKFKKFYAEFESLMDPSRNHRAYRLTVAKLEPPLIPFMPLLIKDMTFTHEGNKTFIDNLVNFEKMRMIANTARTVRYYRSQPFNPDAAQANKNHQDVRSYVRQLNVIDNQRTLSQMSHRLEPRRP
# The entries are a selection whose mix differs from that of the whole data set. Active and inactive are the calls of the source. Calls come from the whole dose curve; as a rule, active = well fitted activation curve with a large enough effect; inconclusive = small, poorly fitted or top-dose-only effect; inactive = no such curve, though single readings can be large or run the other way.
# Target: Rap guanine nucleotide exchange factor 4 (Homo sapiens) (UniProt Q8WZA2)
# Test: qHTS for Agonist of cAMP-regulated guanine nucleotide exchange factor 4 (EPAC2): primary screen; note: nearly all actives have a fitted effect of over 50% in size
# Conditions: biochemical qHTS, 100% = 6.5 mM cAMP response; at 154 µM (top of the series)
# Text: In multi-cellular eukaryotic organisms, the effects of cAMP are transduced by two ubiquitously-expressed intracellular cAMP receptors, the classic protein kinase A/cAMP-dependent protein kinase (PKA/cAPK) and the more recently discovered exchange protein directly activated by cAMP/cAMP-regulated guanine nucleotide exchange factor (EPAC/cAMP-GEF). Both PKA and EPAC are ubiquitously expressed in all tissues, and an increase in intracellular cAMP levels will lead to the activation of both PKA and EPAC. […]
# This qHTS will be used to screen the Molecular Libraries Small Molecule Repository (MLSMR) as a concentration-titration series using the NCGC unique quantitative screening (qHTS) platform to find activators for EPAC2. […] Activators are identified by monitoring the change in fluorescence signal as the exchanged free BODIPY-GDP has a reduced fluorescence compared to Rap1-bound BODIPY-GDP. […]
# Briefly, three uL of reagents (100 nM EPAC2, 250 nM RAP1B-BODIPY-GDP, 50 uM GDP) were dispensed into a 1536-well Greiner black solid-bottom medium binding assay plate. […] The assay plates were read at 5 minute intervals for 30 minutes in the ViewLux plate reader using 480nm excitation and 540nm emission filters. […]
row,SMILES,activation
1,CN1CCCCC1COC(=O)C1(O)c2ccccc2CCc2ccccc21 (stereo unspecified),inactive: -11%
